The target in this test is human recombinant DGK ξ (Homo sapiens (Human), UniProt Q13574). As to the kind of experiment: Evaluation of DGK ξ inhibitory effect (ADP-Glo Kinase Assay). As to conditions: ADP-Glo luminescence. As for the experimental part:
Test Example 1. Evaluation of DGK ξ Inhibitory Effect
The inhibitory effect of a test compound on human recombinant DGK ξ (Cama Biosciences, Inc., 12-410-20N) was examined by the following method in which detection is performed with ADP-Glo™ Kinase Assay (Promega Corporation).
To a 384-well plate (Greiner Bio-One Co., Ltd.), 3 μL of a DGK ξ enzyme dissolved in an assay buffer (40 mM Tris-HCl pH 7.5, 10 mM MgCl2, 1 mM dithiothreitol (DTT) and 0.1 mg/mL bovine serum albumin (BSA)) (90 ng/mL) was added, and 3 μL of the test compound diluted with the same assay buffer was added so that an intended final concentration was obtained. The mixture was left standing at room temperature for 15 minutes, 3 μL of a substrate (150 μM 1-oleoyl-2-acetyl-sn-glycerol (Sigma-Aldrich Co. LLC), 480 μM phosphatidylserine (Avanti, Inc.) and 150 μM UltraPure-ATP (attached to ADP-Glo)) was then added, and the mixture was left standing at room temperature for 30 minutes to react. Thereafter, 3 μL of an ADP-Glo Reagent was added, and the mixture was left standing at room temperature for 40 minutes to stop the enzyme reaction. Further, 6 μL of a Kinase-Detection Reagent was added, the mixture was left standing at room temperature for 30 minutes, and the luminescence was then measured using ARVO X3 (PerkinElmer, Inc.). […]

Amino acid sequences for entries named in this document (tags omitted).
UniProt Q13574, whole entry: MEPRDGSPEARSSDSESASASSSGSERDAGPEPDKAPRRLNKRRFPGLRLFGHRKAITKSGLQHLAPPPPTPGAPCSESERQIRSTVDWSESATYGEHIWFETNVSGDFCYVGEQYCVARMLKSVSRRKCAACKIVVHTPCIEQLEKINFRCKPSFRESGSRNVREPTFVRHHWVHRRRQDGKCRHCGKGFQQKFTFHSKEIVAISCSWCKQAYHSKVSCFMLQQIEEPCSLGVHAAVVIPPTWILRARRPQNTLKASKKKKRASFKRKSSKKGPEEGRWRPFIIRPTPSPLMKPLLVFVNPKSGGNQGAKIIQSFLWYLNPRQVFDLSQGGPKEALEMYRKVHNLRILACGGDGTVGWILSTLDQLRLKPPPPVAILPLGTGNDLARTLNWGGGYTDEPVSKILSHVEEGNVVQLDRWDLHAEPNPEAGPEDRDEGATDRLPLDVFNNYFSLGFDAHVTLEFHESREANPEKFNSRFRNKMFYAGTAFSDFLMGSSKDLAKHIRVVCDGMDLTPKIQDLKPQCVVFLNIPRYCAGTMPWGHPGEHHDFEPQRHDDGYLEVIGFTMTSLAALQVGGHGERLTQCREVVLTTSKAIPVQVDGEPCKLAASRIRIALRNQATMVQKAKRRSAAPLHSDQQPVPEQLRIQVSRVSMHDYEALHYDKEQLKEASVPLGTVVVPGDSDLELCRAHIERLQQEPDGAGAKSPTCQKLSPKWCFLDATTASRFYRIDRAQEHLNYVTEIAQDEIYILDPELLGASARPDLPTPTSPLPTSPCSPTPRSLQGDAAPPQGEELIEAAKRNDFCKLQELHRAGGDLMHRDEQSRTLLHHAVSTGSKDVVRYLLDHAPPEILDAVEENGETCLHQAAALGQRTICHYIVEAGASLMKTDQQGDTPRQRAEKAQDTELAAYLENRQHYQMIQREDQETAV

A word on the IC50: it is the concentration that inhibits the measured activity by half. `CN(C)CCOc1cc(-c2c(NC(=O)c3ccn(-c4ccnnc4)n3)ccc(OC3CCC3)c2C(F)(F)F)ccn1`: the IC50 was found to be 20 nM.

For `CNC[C@H]1CN(c2c(NC(=O)c3ccn(-c4ccnnc4)n3)ccc(Oc3ccccc3F)c2F)CCN1C`, the IC50 came out at 4.9 nM.

(Values after patent US20240043403A1, “HETEROARYL CARBOXAMIDE COMPOUND” (Astellas Pharma Inc., priority 2020, published 2024).)
